Data: US10555961B2 (INDIANA UNIVERSITY RESEARCH AND TECHNOLOGY CORPORATION, priority 2015, dated 2020)

Tests used:
[1] = tested on: rats
[2] = tested on: Sprague Dawley rats; settings: 100 mg/kg
[3] = tested on: yARF1yarf2Δ cells; settings: 500 μg mL^−1, FIG. 5
[4] = tested on: hARF4 cells
[5] = tested on: bARF1 cells
[6] = tested on: wild type, Δzuo1, Δsac1, Δvsp52, and Δvps16 strains of Saccharomyces cerevisiae; settings: 500 μg mL^−1, FIG. 4

| Substance | SCr (serum creatinine) ([1]; Day 0, Mean of rats) [mg/dL] | SCr (serum creatinine) ([1]; Day 1, Mean of rats) [mg/dL] | SCr (serum creatinine) ([1]; Day 2, Mean of rats) [mg/dL] | SCr (serum creatinine) ([1]; Day 3, Mean of rats) [mg/dL] | SCr (serum creatinine) ([1]; Day 5, Mean of rats) [mg/dL] | SCr (serum creatinine) ([1]; Day 7, Mean of rats) [mg/dL] | SCr (serum creatinine) ([2]; Day 0, Mean of rats) [mg/dL] | SCr (serum creatinine) ([2]; Day 0, individual rat) | SCr (serum creatinine) ([2]; Day 1, Mean of rats) [mg/dL] | SCr (serum creatinine) ([2]; Day 1, individual rat) | SCr (serum creatinine) ([2]; Day 2, Mean of rats) [mg/dL] | SCr (serum creatinine) ([2]; Day 2, individual rat) | SCr (serum creatinine) ([2]; Day 3, Mean of rats) [mg/dL] | SCr (serum creatinine) ([2]; Day 3, individual rat) | SCr (serum creatinine) ([2]; Day 5, Mean of rats) [mg/dL] | SCr (serum creatinine) ([2]; Day 5, individual rat) | SCr (serum creatinine) ([2]; Day 7, Mean of rats) [mg/dL] | SCr (serum creatinine) ([2]; Day 7, individual rat) | SCr (serum creatinine) ([2]; Day 8, Mean of rats) [mg/dL] | SCr (serum creatinine) ([2]; Day 8, individual rat) | other results |
| --- | --- | --- | --- | --- | --- | --- | --- | --- | --- | --- | --- | --- | --- | --- | --- | --- | --- | --- | --- | --- | --- |
| C-2a gentamicin | 0.2 | 0.3 | 0.5 | 0.7 | 0.9 | 0.7 | – | – | – | – | – | – | – | – | – | – | – | – | – | – | SCr (serum creatinine) ([1]; Day 0, individual rat, listed as C-2a congener): 0.3 mg/dL (2×) and 0.2 mg/dL and 0.1 mg/dL; SCr (serum creatinine) ([1]; Day 1, individual rat, listed as C-2a congener): 0.4 mg/dL (2×) and 0.2 mg/dL and 0.3 mg/dL; SCr (serum creatinine) ([1]; Day 2, individual rat, listed as C-2a congener): 0.6 mg/dL and 0.4 mg/dL (2×) and 0.5 mg/dL; SCr (serum creatinine) ([1]; Day 3, individual rat, listed as C-2a congener): 0.9 mg/dL and 0.6 mg/dL and 0.5 mg/dL and 0.8 mg/dL; SCr (serum creatinine) ([1]; Day 5, individual rat, listed as C-2a congener): 0.9 mg/dL and 0.6 mg/dL and 0.8 mg/dL and 1.2 mg/dL; SCr (serum creatinine) ([1]; Day 7, individual rat, listed as C-2a congener): 0.8 mg/dL and 0.5 mg/dL and 0.9 mg/dL and 0.6 mg/dL |
| C-2 gentamicin | – | – | – | – | – | – | 0.2 | 0.3 mg/dL and 0.2 mg/dL and 0.1 mg/dL | 0.3 | 0.5 mg/dL and 0.3 mg/dL and 0.2 mg/dL | 0.4 | 0.5 mg/dL (2×) and 0.3 mg/dL | 0.4 | 0.3 mg/dL and 0.4 mg/dL and 0.5 mg/dL | 0.5 | 0.5 mg/dL | 0.6 | 0.6 mg/dL (2×) and 0.5 mg/dL | 0.5 | 0.6 mg/dL and 0.5 mg/dL (2×) | – |
| C-1 gentamicin | 0.2 | 0.2 | 0.3 | 0.4 | 0.5 | 0.5 | – | – | – | – | – | – | – | – | – | – | – | – | – | – | effect on bovine cell growth [3]: less of an effect on bovine cell growth than native gentamicin or any of the other congeners of gentamicin; percent growth ([4]; 100 μg mL^−1, FIG. 6): higher percent growth relative to other congeners of gentamicin or native gentamicin; percent growth ([4]; 500 μg mL^−1, FIG. 6): higher percent growth; percent growth ([5]; 100 μg mL^−1, FIG. 6): higher percent growth relative to other congeners of gentamicin or native gentamicin; percent growth ([5]; 500 μg mL^−1, FIG. 6): higher percent growth; SCr (serum creatinine) ([1]; Day 0, individual rat, listed as C-1 congener): 0.1 mg/dL and 0.2 mg/dL (2×) and 0.3 mg/dL; SCr (serum creatinine) ([1]; Day 1, individual rat, listed as C-1 congener): 0.2 mg/dL (3×) and 0.1 mg/dL; SCr (serum creatinine) ([1]; Day 2, individual rat, listed as C-1 congener): 0.2 mg/dL (2×) and 0.3 mg/dL (2×); SCr (serum creatinine) ([1]; Day 3, individual rat, listed as C-1 congener): 0.4 mg/dL (2×) and 0.3 mg/dL and 0.5 mg/dL; SCr (serum creatinine) ([1]; Day 5, individual rat, listed as C-1 congener): 0.6 mg/dL (2×) and 0.4 mg/dL and 0.3 mg/dL; SCr (serum creatinine) ([1]; Day 7, individual rat, listed as C-1 congener): 0.6 mg/dL and 0.4 mg/dL (2×) and 0.5 mg/dL; level of serum creatinine (in words) ([1]; rat studies, compared with any gentamicin congener administered): lowest level of serum creatinine for any gentamicin congener; toxicity in vivo (in words) ([1]; rats, compare Table 3 with Table 11): less toxic in vivo than the C-2 congener; effect on yeast growth [6]: less of an effect on yeast growth than native gentamicin or any of the other congener of gentamicin |
| C-1a gentamicin | 0.2 | 0.2 | 0.3 | 0.5 | 0.7 | 0.7 | 0.2 | 0.1 mg/dL and 0.2 mg/dL (2×) | 0.4 | 0.3 mg/dL and 0.5 mg/dL | 0.5 | 0.4 mg/dL and 0.5 mg/dL | 0.5 | 0.5 mg/dL and 0.4 mg/dL | 0.6 | 0.5 mg/dL and 0.6 mg/dL | 0.6 | 0.6 mg/dL | 0.7 | 0.7 mg/dL and 0.6 mg/dL | death of rat ([2]; Rat #8, after the first injection): died; SCr (serum creatinine) ([1]; Day 0, individual rat, listed as C-1a congener): 0.1 mg/dL and 0.3 mg/dL and 0.2 mg/dL (2×); SCr (serum creatinine) ([1]; Day 1, individual rat, listed as C-1a congener): 0.3 mg/dL and 0.2 mg/dL (3×); SCr (serum creatinine) ([1]; Day 2, individual rat): 0.3 mg/dL; SCr (serum creatinine) ([1]; Day 3, individual rat, listed as C-1a congener): 0.6 mg/dL (2×) and 0.5 mg/dL and 0.4 mg/dL; SCr (serum creatinine) ([1]; Day 5, individual rat, listed as C-1a congener): 0.6 mg/dL (2×) and 1.0 mg/dL and 0.4 mg/dL; SCr (serum creatinine) ([1]; Day 7, individual rat, listed as C-1a congener): 0.6 mg/dL (2×) and 0.9 mg/dL and 0.5 mg/dL |

Values joined by “and” are separate entries in the source; they are usually repeats but may differ in a detail not shown here. Equal values may be shown once. Read-outs that look alike come from different tables or passages of the source.
